This is a selection; strong and weak results do not stand in their true shares. Results filed as inconclusive are left out. Calls of active or inactive are those of the source.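 Rule for the calls: active = thallium flux slope above the same plate's solvent-only control mean plus 3 SD; inconclusive = the two replicate wells disagree; inactive = no significant difference from solvent-only control wells.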
Target: Solute carrier family 12 member 5 (Homo sapiens) (UniProt Q9H2X9)
Experiment: retest of KCC2 transport modulators without sodium – cell-based, HEK293 KCC2, thallium flux, secondary assay, confirmation (AID 1713)
Details: FluoZin2 fluorescence, at 10 µM, stronger effect = higher value
Method in brief: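 Test system: KCC2-expressing HEK cells. Medium: Sodium-free N-methylglucamine chloride buffer. Schedule: dye loading 48 min. Technique: kinetic thallium-flux fluorescence imaging.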

Protein sequences, listed by entry. Tags and fused reporters are not part of them. Lines headed by an entry give the natural chain unless they say otherwise; changes in a name come on top.
UniProt Q9H2X9: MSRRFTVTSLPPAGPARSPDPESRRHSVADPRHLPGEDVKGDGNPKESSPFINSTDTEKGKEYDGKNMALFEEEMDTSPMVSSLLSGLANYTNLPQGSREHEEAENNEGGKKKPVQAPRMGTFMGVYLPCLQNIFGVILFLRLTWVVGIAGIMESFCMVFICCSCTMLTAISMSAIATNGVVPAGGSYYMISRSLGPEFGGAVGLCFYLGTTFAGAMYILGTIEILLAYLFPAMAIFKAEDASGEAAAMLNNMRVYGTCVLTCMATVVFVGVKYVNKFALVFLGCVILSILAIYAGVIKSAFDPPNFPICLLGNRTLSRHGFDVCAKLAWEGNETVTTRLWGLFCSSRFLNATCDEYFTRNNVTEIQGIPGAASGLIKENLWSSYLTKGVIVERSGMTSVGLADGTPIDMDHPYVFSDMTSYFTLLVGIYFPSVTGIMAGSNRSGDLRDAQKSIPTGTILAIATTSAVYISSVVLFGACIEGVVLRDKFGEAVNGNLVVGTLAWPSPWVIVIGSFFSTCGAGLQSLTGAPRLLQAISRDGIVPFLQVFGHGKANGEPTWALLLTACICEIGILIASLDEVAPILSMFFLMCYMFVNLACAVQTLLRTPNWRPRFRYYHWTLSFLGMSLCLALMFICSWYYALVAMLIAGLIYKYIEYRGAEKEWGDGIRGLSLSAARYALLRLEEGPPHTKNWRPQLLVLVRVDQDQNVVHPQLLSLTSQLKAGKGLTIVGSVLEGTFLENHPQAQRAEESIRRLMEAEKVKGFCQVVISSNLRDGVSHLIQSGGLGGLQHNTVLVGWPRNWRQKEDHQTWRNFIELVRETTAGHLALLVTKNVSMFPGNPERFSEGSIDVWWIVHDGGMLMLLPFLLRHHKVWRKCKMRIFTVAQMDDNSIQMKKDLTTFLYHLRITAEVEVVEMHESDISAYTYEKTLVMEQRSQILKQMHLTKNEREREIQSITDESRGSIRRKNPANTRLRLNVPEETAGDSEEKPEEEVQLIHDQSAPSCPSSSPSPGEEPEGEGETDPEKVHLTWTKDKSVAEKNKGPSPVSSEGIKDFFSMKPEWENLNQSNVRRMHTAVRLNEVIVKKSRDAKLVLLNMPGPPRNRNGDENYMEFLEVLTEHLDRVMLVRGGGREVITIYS

| Compound | normalised thallium flux (F/F0 slope) |
| --- | --- |
| O=c1c2cc([N+](=O)[O-])ccc2[nH]c2c([N+](=O)[O-])cc([N+](=O)[O-])cc12 | inactive: 0.00709 |
| O=P(Nc1nc2ccc(Cl)cc2s1)(c1ccccc1)c1ccccc1 | inactive: 0.0175 |
| C[N+]1=C2C=CC=CC=C2SC12C([N+](=O)[O-])=CC([N+](=O)[O-])=C[C-]2[N+](=O)[O-] (stereo not drawn) | inactive: 0.00648 |
